# Assays:
# [1] = tested on: P. falciparum clone CDC/Sierra Leone I (D6); assay: Anti-malaria in vitro screen, P. falciparum clone D6; details: in words
# [2] = tested on: P. falciparum clone CDC/Indochina III (W2); assay: Anti-malaria in vitro screen, P. falciparum clone W2; details: in words
SMILES,relative potency in D6 [1],relative potency in W2 [2]
CCN(CC)[N+]([O-])=NOCOC(C)=O [acetoxy-DEA/NO],substantially more potent than SPER/NO and DETA/NO in D6,
NCCN(CCN)[N+]([O-])=NO [DETA/NO],,substantially more potent than SPER/NO and acetoxy-DEA/NO in W2

# From patent US5814666A, “Encapsulated and non-encapsulated nitric oxide generators used as antimicrobial agents” (The United States as represented by the Department of …, priority 1995, dated 1998)
